Reference: patent US20260124184A1, “ONCE DAILY ALDOSTERONE SYNTHASE INHIBITOR (R)-(+)-5-(P-CYANOPHENYL)-5,6,7,8-TETRAHYDROIMIDAZO[L,5-A]PYRIDINE” (priority 2022, published 2026)
Several values for one entry are separate records, joined by “and”; a condition that tells them apart may be missing. Equal values may be shown once. Read-outs that look alike come from different tables or passages of the source.

What was measured:
[1] = tested on: patients with primary aldosteronism
Protocol: (§1) A double-blind, randomized, Phase 2 trial was conducted between November 2019 and June 2022 at 11 centres in Italy, Switzerland and the Netherlands (NCT04007406). […] Patients requiring fixed-dose antihypertensive therapy continued treatment throughout the study; steroid therapies, β-adrenergic and renin-angiotensin-aldosterone system blockers were not permitted. At 14-day intervals, office blood pressures were recorded and blood samples were taken for measurement of steroid and peptide hormones and electrolytes at a central laboratory.
(§2) For all efficacy endpoints, changes from baseline were calculated from linear models and accompanied by 95% confidence intervals and p values. Log-transformed values were used for changes in ARR. The full analysis set (FAS) and safety set were defined as all randomized patients who received at least one dose of study drug.

[2] = tested on: patients with primary aldosteronism; conditions: all doses combined, n=35
Protocol: as §1
Plasma aldosterone and plasma renin concentration were measured centrally under GCP regulations using the Liaison® chemiluminescent immunoassay kit supplied by DiaSorin S.p.A. Italy. The system used specific monoclonal antibodies to prevent cross reactions with other major potential reactants in the serum samples. The monoclonal antibodies directed against specific epitopes of the renin molecule allowed accurate and sensitive quantification. The assays were performed according to the instructions provided by the manufacturer. […] The analytical sensitivity was <0.97 ng/ml. […] The analytical sensitivity was <0.53 IU/mL.
as §2

(R)-(+)-5-(p-cyanophenyl)-5,6,7,8-tetrahydroimidazolium[1,5-a]pyridine dihydrogen phosphate [dexfadrostat phosphate]
Serious TEAE, number of patients ([1]; N=35): 0 | TRAE and possibly TRAE: Vertigo, number of events ([1]; N=35): 1 | TRAE, % of patients ([1]; N=35): (20.0) % | Any TEAE, % of patients ([1]; N=35, 70-day study period): (45.7) % | AESI considered treatment-related or possibly treatment-related, number ([1]; headaches): two | aldosterone to renin ratio (ARR), mean ([2]; Day 1 (baseline)): 17.58 (ng/dL)/(mU/L) | aldosterone to renin ratio (ARR), median ([2]; Day 1 (baseline)): 15.3 (ng/dL)/(mU/L) and 15.27 (ng/dL)/(mU/L) | aldosterone to renin ratio (ARR), mean ([2]; Day 56): 2.18 (ng/dL)/(mU/L) | aldosterone to renin ratio (ARR), median ([2]; Day 56): 0.6 (ng/dL)/(mU/L) and 0.63 (ng/dL)/(mU/L)
